# AlphaSeq binding of Ab-14 light chain variants to a spike HR2 peptide

The measurements come from Li et al. 2023 (doi:10.1038/s41467-023-39022-2) through the FLAb antibody collection.

Target peptide (SARS-CoV-2 spike, HR2 region): PDVDLGDISGINAS

Parent scFv Ab-14: VH joined to VL by a 15-residue (Gly4Ser)3 linker. Changes lie in the light chain CDRs alone.
VH: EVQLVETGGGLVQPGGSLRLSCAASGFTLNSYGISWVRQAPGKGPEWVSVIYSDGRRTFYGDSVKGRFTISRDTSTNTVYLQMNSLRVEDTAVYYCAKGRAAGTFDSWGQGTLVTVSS
VL: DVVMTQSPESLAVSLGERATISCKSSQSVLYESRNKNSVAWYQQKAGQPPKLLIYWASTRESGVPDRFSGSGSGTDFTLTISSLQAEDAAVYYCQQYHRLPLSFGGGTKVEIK

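The variants were designed computationally from a first round of random CDR variants and then made and measured. Several design methods are mixed in this list. The scFvs were displayed on barcoded MATa yeast, the peptide on MATalpha yeast. Binding brings cells together so that they mate, and sequencing counts the barcode pairs among the diploids. Read counts were normalised to the haploid input and turned into Kd by a linear fit to BCL2-family pairs of known affinity, for each replicate. The assay was run in six technical replicates.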

The whole VL of each variant is written out.
Scale: log10 of Kd in nM, estimated from mating counts; low values are strong binders.
The mean shown is taken over the replicates in which the pair was detected.
Where no diploid with the target was found in any replicate, the entry reads "not detected": below detection, most likely a poor binder, though not proof of it.
Background: pairings of all light chain designs with three empty control strains gave a value in 4% of cases (median 2.64, 5th percentile 1.59). Values in that range, when seen in few replicates, are hard to tell from nonspecific mating. For each scFv, signals with the empty controls are counted beside the result.
The authors averaged sequences with at least three values out of six and counted those with two or fewer as poor binders.
Values of this round are not directly comparable with the first-round values of the same sequences.

VL,"log10 Kd (nM), mean",detected,empty controls
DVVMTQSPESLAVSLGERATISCKSSESVAQESRNKNSVAWYQQKAGQPPKLLIYPASQRESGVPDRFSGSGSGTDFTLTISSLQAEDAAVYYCQQYHRLPLSFGGGTKVEIK,not detected,0 of 6,0 of 18
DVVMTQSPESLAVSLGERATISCKVDFLGDYEQRNKNSVAWYQQKAGQPPKLLIYSASTRESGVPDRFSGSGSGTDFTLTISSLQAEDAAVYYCQQYHRLPLSFGGGTKVEIK,-0.18,6 of 6,0 of 18
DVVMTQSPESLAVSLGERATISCMISEVMNTLTRHGNNVAWYQQKAGQPPKLLIYDLAEREDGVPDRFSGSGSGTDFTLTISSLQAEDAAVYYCQQYFRLPLSFGGGTKVEIK,1.38,6 of 6,0 of 18
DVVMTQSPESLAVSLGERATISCKLRQSTKYESRNANSVAWYQQKAGQPPKLLIYSASTRESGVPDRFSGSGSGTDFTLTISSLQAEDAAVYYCQQYHRLPLSFGGGTKVEIK,0.10,6 of 6,0 of 18
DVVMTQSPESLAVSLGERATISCTITQFMDNLAKNRNNVAWYQQKAGQPPKLLIYDTSTLGDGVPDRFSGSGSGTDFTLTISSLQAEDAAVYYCQSYDRLPLSFGGGTKVEIK,-0.27,6 of 6,0 of 18
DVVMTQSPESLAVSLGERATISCELFFNDDQLQEQSNNIAWYQQKAGQPPKLLIYHASLRSVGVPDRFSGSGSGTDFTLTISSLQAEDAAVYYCQQYYHLPLVFGGGTKVEIK,1.44,6 of 6,1 of 18
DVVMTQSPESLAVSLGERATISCKVVQSWLYESRNKNSVAWYQQKAGQPPKLLIYGASTRESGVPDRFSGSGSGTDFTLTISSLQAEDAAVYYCQQYHRLPLIFGGGTKVEIK,0.53,6 of 6,0 of 18
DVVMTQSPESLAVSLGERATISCKLYQSVLYESRNKNSVAWYQQKAGQPPKLLIYNASTREQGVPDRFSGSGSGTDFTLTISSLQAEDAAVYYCQQYHRLPLSFGGGTKVEIK,0.04,6 of 6,1 of 18
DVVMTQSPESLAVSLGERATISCKLQFSSGMSQRNKNSVAWYQQKAGQPPKLLIYSASTRCSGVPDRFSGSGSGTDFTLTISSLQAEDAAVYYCQQYHRLPLSFGGGTKVEIK,0.86,6 of 6,3 of 18
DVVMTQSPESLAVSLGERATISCMVSQLMLWGLHAKNSIAWYQQKAGQPPKLLIYEAETRGNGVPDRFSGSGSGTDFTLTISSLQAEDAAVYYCQQYDRLPLIFGGGTKVEIK,1.82,3 of 6,0 of 18
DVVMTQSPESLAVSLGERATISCNISEPMYFQTRMKNNIAWYQQKAGQPPKLLIYEVSTRERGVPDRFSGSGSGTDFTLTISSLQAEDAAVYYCQHYHRLPLSFGGGTKVEIK,2.43,5 of 6,0 of 18
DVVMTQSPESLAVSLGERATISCKSSISYLYESPNKNSVAWYQQKAGQPPKLLIYEASQRESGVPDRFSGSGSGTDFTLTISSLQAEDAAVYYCQQYHRLPLSFGGGTKVEIK,1.09,6 of 6,1 of 18
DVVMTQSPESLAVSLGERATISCMISDLTMYGSRNKNSIAWYQQKAGQPPKLLIYDLSTRGSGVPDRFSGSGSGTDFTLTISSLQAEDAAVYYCQQYHRLPLSFGGGTKVEIK,-0.17,6 of 6,0 of 18
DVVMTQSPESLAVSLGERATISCKVSQSVMMLSRNKNSVAWYQQKAGQPPKLLIYDNSTSGPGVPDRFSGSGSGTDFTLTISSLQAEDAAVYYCQQYHRLPLSFGGGTKVEIK,1.10,6 of 6,1 of 18
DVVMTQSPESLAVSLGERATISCKLGGMTAIESRNNNSVAWYQQKAGQPPKLLIYQMDTRESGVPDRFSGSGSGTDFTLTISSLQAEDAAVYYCQQYDRLPLSFGGGTKVEIK,0.97,6 of 6,1 of 18
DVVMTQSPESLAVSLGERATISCKFQGSVMMGDRNKNSVAWYQQKAGQPPKLLIYKASTRLSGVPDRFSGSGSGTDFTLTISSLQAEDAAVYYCQQYHRLPLSFGGGTKVEIK,0.47,6 of 6,1 of 18
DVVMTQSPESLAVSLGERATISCKLQQSVDYESRNKNAVAWYQQKAGQPPKLLIYEASTREQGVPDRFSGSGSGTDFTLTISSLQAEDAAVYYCQQYHRLPLSFGGGTKVEIK,-0.09,6 of 6,1 of 18
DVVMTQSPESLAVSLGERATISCMISQLMNMGQFAINSVAWYQQKAGQPPKLLIYQASIRNEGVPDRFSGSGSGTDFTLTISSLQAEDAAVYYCQQYDRLPLMFGGGTKVEIK,1.16,6 of 6,1 of 18
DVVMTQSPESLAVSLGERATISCKSSQLELYESRMKNSVAWYQQKAGQPPKLLIYNASYRLDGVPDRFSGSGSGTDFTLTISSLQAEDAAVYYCQQYHRLPLSFGGGTKVEIK,0.41,6 of 6,1 of 18
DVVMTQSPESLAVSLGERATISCKSSQSVLYESDNKNSVAWYQQKAGQPPKLLIYWASTRENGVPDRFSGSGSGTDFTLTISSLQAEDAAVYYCQQYHRLPLSFGGGTKVEIK,1.19,6 of 6,0 of 18
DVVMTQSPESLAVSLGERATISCHSSASVLYESRNKNNVAWYQQKAGQPPKLLIYNASTRESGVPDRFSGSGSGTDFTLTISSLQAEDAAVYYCQQYHRLPLSFGGGTKVEIK,-0.13,6 of 6,0 of 18
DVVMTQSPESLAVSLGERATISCKIGMVTNGISRNKNSVAWYQQKAGQPPKLLIYEQSTRESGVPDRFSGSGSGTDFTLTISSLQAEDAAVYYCQQYNRLPLSFGGGTKVEIK,0.42,6 of 6,1 of 18
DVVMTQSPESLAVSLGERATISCTLGQVTMVESYNKDSVAWYQQKAGQPPKLLIYQANTRLEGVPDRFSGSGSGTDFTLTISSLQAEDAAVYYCQDYHRLPLSFGGGTKVEIK,0.87,6 of 6,0 of 18
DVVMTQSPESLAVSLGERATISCKSSQSVLYNSRNKNSCAWYQQKAGQPPKLLIYWASTRASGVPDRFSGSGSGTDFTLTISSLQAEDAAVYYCQQYHRLPLSFGGGTKVEIK,0.96,6 of 6,0 of 18